Here are results for one compound from US20080287490A1, “Bis-pyridino containing compounds for the use in the treatment of CNS pathologies” (UNIVERSITY OF KENTUCKY RESEARCH FOUNDATION, priority 2005, published 2008).

The subject of the assay is nAChR subtypes mediating nicotine-evoked [^3H]-dopamine overflow. Conditions: read-out: Nicotine-evoked [^3H]DA Overflow IC50; Table 5; mean (95% confidence interval); tested form: iodide (read from the final I of the cod).

Take `CCCCCCCCCC[n+]1ccccc1`: the IC50 amounted to 130 nM.
